According to ChEMBL document CHEMBL1135239, “Imidazo[5,1-f]triazin-4(3H)-ones, a new class of potent PDE 5 inhibitors” (Bioorg Med Chem Lett, 2002):

Biological target: cGMP-specific 3',5'-cyclic phosphodiesterase (Homo sapiens, UniProt O76074)

`CCCOc1ccc(S(=O)(=O)N2CCN(C)CC2)cc1-c1nc2c(ncn2CCC)c(=O)[nH]1` was tested, and the IC50 was 10 nM.
